# Measured values taken from paper PMC6522010.
# Protein sequences, listed by entry. Tags and fused reporters are not part of them.
# UniProt Q9NTK5, whole entry: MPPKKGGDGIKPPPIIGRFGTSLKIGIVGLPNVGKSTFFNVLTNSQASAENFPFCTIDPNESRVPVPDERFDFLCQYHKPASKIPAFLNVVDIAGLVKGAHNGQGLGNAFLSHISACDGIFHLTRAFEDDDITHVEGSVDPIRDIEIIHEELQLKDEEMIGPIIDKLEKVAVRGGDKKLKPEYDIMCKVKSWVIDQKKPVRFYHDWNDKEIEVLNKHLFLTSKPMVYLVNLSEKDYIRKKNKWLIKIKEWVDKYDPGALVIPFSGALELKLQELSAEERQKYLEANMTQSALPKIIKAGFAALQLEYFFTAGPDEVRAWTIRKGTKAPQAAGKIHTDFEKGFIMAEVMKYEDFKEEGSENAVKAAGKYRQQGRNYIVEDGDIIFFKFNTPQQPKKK
# The list shows a part of the results.
# Biological target: Obg-like ATPase 1 (UniProt Q9NTK5)
# Assay: mass-spectrometry hit list; affinity purification or IP with mass spectrometry
substance,measurement,value
"Nephrocystin-4, O75161",listed as a hit,yes
